Values of other authors, collected in publication PMC6816013 (Journal of Medicinal Chemistry, 2019).

Test system: P. falciparum strain 3D7A
Conditions: result in words; previous study ref 17; cited from earlier work

Structure (SMILES): Cc1cn2c(-c3ccnc(NCC4CC4)n3)c(-c3ccc(F)c(NS(C)(=O)=O)c3)nc2cc1CN(C)C [Compound 2]
- rate of killing in PRR study: slow parasite killing kinetics
